Rows were chosen to be rich in hits. Some 0.94% of all compounds tested hit in one or more screens of this group.
PKA-R1A act = activators of PKA-R1A complex; PKA-R1A dissociation, Cy5-IP20 fluorescence polarization; scaled: DMSO 0%, 113 µM cGMP 100%; activation, % at 11.4 µM; hit rate 0.083% among 340,000; AID 504707;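 active = percent activation above the mean of all tested compounds plus 3 SD, cut at about 19% in these data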;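 also: higher means more PKAc released from R1A so a rise in polarization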
PKA-R2B act = activators of human PKA-R2B complex | activation, % at 11.4 µM | PKA-R2B holoenzyme dissociation, Cy5-IP20 fluorescence polarization; R2B truncated from residue 108, S112A mutant; 0% DMSO only, 100% 113 µM cGMP | P22694+P31323 | hit rate 0.079% among 340,000;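 active = activation above a cutoff set at the mean over all compounds plus 3 SD, cut at about 18% in these data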;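 also: higher means more holoenzyme dissociation and a rise in polarization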
Yeast UUG start = modulators of yeast start codon fidelity, primary screen, whole organism, S. cerevisiae, single point, plate reader. S. cerevisiae UUG-firefly luciferase reporter, luminescence/redox ratio. activity score, % at 18.7 µM. 350,000 tested, 0.13% active;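 active = replicate mean at a twofold rise or more, about +100% in these data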;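 also: firefly luciferase made from a UUG start codon reports start codon fidelity; reporter light over untreated wells divided by growth signal over untreated wells; some hits fall short of that in this replicate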
Exocytosis inh = lytic granule exocytosis inhibition; TALL-104 LAMP-1 surface exposure, flow cytometry; cells stimulated with thapsigargin and PMA; inhibition, % at 10 µM; hit rate 0.66% among 360,000; AID 651702;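 active = inhibition above about 55%, limit read from the data; inconclusive = no clear call, values can overlap the other calls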
p-CIP stab down = compounds decreasing mouse p/CIP protein stability. Q05BA5. F442A p/CIP-EGFP cells, EGFP fluorescence, 16 h. hit rate 0.01% among 290,000. decrease of EGFP signal, % at 10 µM;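 active = EGFP signal decrease of at least 30% at 10 µM or well 3 SD below plate mean, unless failing retest; inactive = the rest, including hits failing retest or dose response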
ABCB6 inh MLPCN = human ABCB6 transporter inhibition; Q9NP58; K562-ABCB6 porphyrin accumulation, flow cytometry, 1 h; stronger effect = lower value; fluorescence ratio to DMSO, % at 10 µM; hit rate 0.19% among 360,000;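 active = fluorescence ratio to DMSO below 75%, the collection mean minus 3 SD; inconclusive = too few cells collected in the well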;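 also: signal is porphyrin accumulated inside mitochondria; 100% equals median channel fluorescence of DMSO control wells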
Granule exo CP1 = lytic granule exocytosis inhibition; shares compounds with Exocytosis inh; TALL-104 cells, LAMP-1 externalization, flow cytometry; stimulated with PMA plus thapsigargin; inhibition, % at 10 µM; hit rate 11% among 1,500; in the data active = inhibition above about 60%;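 also: 0% = stimulated vehicle wells and 100% = unstimulated wells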
Starred values were filed as active, the others as inactive; ? = inconclusive; / = not tested or not shown.

Compound | PKA-R1A act | PKA-R2B act | Granule exo CP1 | Exocytosis inh | p-CIP stab down | Yeast UUG start | ABCB6 inh MLPCN
CN1CCN(CCCNC(=O)c2ccc(/C=C3\Sc4ccccc4N(Cc4ccc(F)cc4)C3=O)cc2)CC1 | -5 | 5 | 77* | 64* | -1 | 20 | 97
CCOC(=O)[C@@H]1[C@H]2COc3ccccc3[C@@H]2N2C(=O)N(c3ccc(Cl)cc3)C(=O)[C@@]12C | 8 | -3 | -13 | 116* | -5 | 0 | 97
CCOC(=O)[C@@H]1[C@H]2COc3ccccc3[C@H]2N2C(=O)N(c3ccc(Cl)cc3)C(=O)[C@]12C | 3 | -2 | / | -15 | -7 | -8 | 94
COc1ccc(CN(C)C[C@H]2Oc3ccc(NC(=O)Nc4ccc5c(c4)OCO5)cc3C(=O)N([C@@H](C)CO)C[C@@H]2C)cc1 | / | / | / | / | / | 2 | /
COc1ccccc1N(C(=O)c1snc(C(N)=O)c1N)C(C(=O)NCc1ccccc1)c1ccc(C)o1 (stereo not drawn) | -1 | 11 | -6 | 73* | -2 | -15 | 97
CCOc1ccccc1N(C(=O)c1snc(C(N)=O)c1N)C(CC)C(=O)NC1CCCC1 (stereo not drawn) | -6 | -9 | -5 | 60* | -2 | -7 | 97
COc1ccc(N(C(=O)c2snc(C(N)=O)c2N)C(C(=O)NCc2ccc(F)cc2)c2ccc(C)o2)c(OC)c1 (stereo not drawn) | -5 | -4 | / | 15 | -3 | -15 | 100
C[C@H]1CN([C@@H](C)CO)C(=O)Cc2cc(NC(=O)C3CC3)ccc2O[C@@H]1CN(C)Cc1ccccc1 | / | / | / | / | / | -17 | /
COC(=O)C1=C(C)N(Cc2ccco2)C(=O)N[C@@H]1c1ccc(Br)cc1 | -6 | -1 | -4 | 56* | / | -16 | 108
COc1cc(C(C)=O)ccc1OCC(=O)N1CCC(Cc2ccccc2)CC1 | -12 | -8 | / | ? | / | 0 | 96
OCc1ccccc1OCCCN1CCC(Cc2ccccc2)CC1 | -1 | 1 | -11 | 69* | -5 | -16 | 94
COc1cc(C(C)=O)ccc1OCCCN1CCC(Cc2ccccc2)CC1 | 1 | -3 | -10 | 64* | 12 | -11 | 94
COc1cc(C(C)=O)ccc1OCCN1CCC(Cc2ccccc2)CC1 | -3 | -6 | -13 | 56* | 10 | -12 | 95
C[C@H](CO)N1C[C@H](C)[C@H](CN(C)C(=O)Nc2cc(F)ccc2F)Oc2ncc(C#CCN(C)C)cc2C1=O | / | / | / | / | / | 13 | /
C[C@@H]1CN([C@@H](C)CO)C(=O)c2cccc(NC(=O)c3ccc(-c4nccs4)cc3)c2O[C@H]1CN(C)Cc1ccc2c(c1)OCO2 | / | / | / | / | / | -15 | /
C[C@H](O)C#Cc1ccc2c(c1)O[C@@H](CN(C)CC1CC1)[C@H](C)CN([C@H](C)CO)S2(=O)=O | / | / | / | / | / | -17 | /

Entries of single compounds, looked up by structure. Screens in order: PKA-R1A act | PKA-R2B act | Granule exo CP1 | Exocytosis inh | p-CIP stab down | Yeast UUG start | ABCB6 inh MLPCN
OCc1ccccc1OCCCN1CCC(Cc2ccccc2)CC1 is entered as -1 | 1 | -11 | 69* | -5 | -16 | 94
COc1cc(C(C)=O)ccc1OCCCN1CCC(Cc2ccccc2)CC1 is entered as 1 | -3 | -10 | 64* | 12 | -11 | 94
COC(=O)C1=C(C)N(Cc2ccco2)C(=O)N[C@@H]1c1ccc(Br)cc1 is entered as -6 | -1 | -4 | 56* | / | -16 | 108
C[C@@H]1CN([C@@H](C)CO)C(=O)c2cccc(NC(=O)c3ccc(-c4nccs4)cc3)c2O[C@H]1CN(C)Cc1ccc2c(c1)OCO2 is entered as / | / | / | / | / | -15 | /

Carrying on:
Compound | PKA-R1A act | PKA-R2B act | Granule exo CP1 | Exocytosis inh | p-CIP stab down | Yeast UUG start | ABCB6 inh MLPCN
O=C(NCc1ccco1)c1ccc2ccccc2n1 | 4 | 9 | / | -2 | 9 | / | 94
O=C(Nc1ccc(S(=O)(=O)NCc2ccco2)cc1)c1ccc2ccccc2n1 | 3 | -3 | -9 | 98* | -1 | -11 | 95
CC(C)c1nc(N2CCN(C(=O)c3ccco3)CC2)c(C#N)c2c1COC(C)(C)C2 | 8 | 7 | / | 16 | 0 | -18 | 92
CCCCc1nc(N2CCN(C(=O)c3ccco3)CC2)c(C#N)c2c1CCCC2 | 2 | -4 | 22 | 79* | -8 | -15 | 99
O=C(NC1CCCC1)c1ccc2c(c1)N(Cc1ccccc1)CCS2 | -6 | -15 | -5 | 70* | -3 | -11 | 93
Cc1ccc(CN2CCSc3ccc(C(=O)NC4CCN(Cc5ccccc5)CC4)cc32)cc1 | -1 | -5 | / | 32 | -9 | -4 | 100
COCC(=O)Nc1ccc2c(c1)[C@@H]1C[C@H](CC(=O)NCc3ccc(Cl)cc3)O[C@@H](CO)[C@@H]1O2 | / | / | / | / | / | 0 | /
COC(=O)c1c(NC(=O)c2ccccc2OC)sc(C(=O)N2CCOCC2)c1C | 7 | -5 | -3 | 68* | -10 | -17 | 100
COc1cccc(CN2CCN(C(=O)c3ccco3)CC2)c1 | -2 | -5 | -10 | 87* | -2 | 10 | 102
COc1ccc(OC)c(CN2CCN(C(=O)c3ccco3)CC2)c1 | 2 | 0 | / | 6 | 6 | -10 | 101
COc1ccc(OC)c(/C=C/C(=O)N2CCCc3ccccc32)c1 | -5 | -11 | / | -1 | 10 | 9 | 97
COc1ccc(/C=C/C(=O)N2CCCc3ccccc32)c(OC)c1 | -15 | -1 | -11 | 72* | -7 | -12 | 91
COc1cccc(S(=O)(=O)N(C)C[C@@H]2Oc3ncc(C#Cc4ccc(F)cc4)cc3C(=O)N([C@H](C)CO)C[C@@H]2C)c1 | / | / | / | / | / | -10 | /
COc1ccccc1CN1[C@H](CO)[C@H]2c3ccccc3N(C(=O)C3CCCCC3)C[C@H]21 | / | / | / | / | / | -9 | /
CCOc1ccc2nc(SC3CC(=O)N(c4ccc(OC)cc4OC)C3=O)sc2c1 (stereo not drawn) | -2 | -5 | 15 | 62* | -10 | / | 103
CCOc1ccc2nc(SC3CC(=O)N(c4ccc(C)cc4)C3=O)sc2c1 (stereo not drawn) | 4 | -11 | -4 | 56* | -6 | -20 | 108
C[C@H]1CN([C@@H](C)CO)C(=O)Cc2cc(NC(=O)NC3CCCCC3)ccc2O[C@@H]1CN(C)Cc1ccc2c(c1)OCO2 | / | / | / | / | / | 30 | /
COc1ccc(C(CCNCc2ccc(N(C)C)cc2)C(C)C)cc1 (stereo not drawn) | -4 | 0 | -13 | 69* | -2 | / | 98
COc1ccc(CNCCC(c2ccc(OC(C)C)cc2)C(C)C)cc1OC (stereo not drawn) | 3 | 0 | / | 15 | 7 | -3 | 100
COc1ccc(C(CCNCc2ccc(OC(C)C)cc2)C(C)C)cc1 (stereo not drawn) | / | / | 7 | 78* | -5 | -3 | 96
COC(=O)c1cn(C(=O)c2ccc(C)cc2)c2ccccc12 | 2 | -19 | / | -1 | -16 | / | 97
COC(=O)c1cn(C(=O)c2cc(Br)ccc2Cl)c2ccccc12 | -2 | 8 | -2 | 72* | 3 | -5 | 102
COC(=O)c1cn(C(=O)c2cc(C)cc(C)c2)c2ccccc12 | 2 | 1 | / | 1 | -30 | -13 | 98
COC(=O)c1cn(C(=O)c2ccc(OC)cc2)c2ccccc12 | -2 | -5 | -13 | 70* | -8 | -14 | 98
COc1cc(CNCCc2c[nH]c3ccccc23)ccc1OCc1ccccc1F | -15 | -14 | / | -3 | -7 | 2 | 96
COc1cccc(CNCCc2c[nH]c3ccccc23)c1OCc1ccccc1 | 4 | 0 | 28 | 65* | 5 | / | 95

Source: PubChem
